The structures appear in SMILES notation.

Chains of the proteins cited; added tags and fusions are not shown. Lines headed by an entry give the natural chain unless they say otherwise; changes in a name come on top.
UniProt O00329: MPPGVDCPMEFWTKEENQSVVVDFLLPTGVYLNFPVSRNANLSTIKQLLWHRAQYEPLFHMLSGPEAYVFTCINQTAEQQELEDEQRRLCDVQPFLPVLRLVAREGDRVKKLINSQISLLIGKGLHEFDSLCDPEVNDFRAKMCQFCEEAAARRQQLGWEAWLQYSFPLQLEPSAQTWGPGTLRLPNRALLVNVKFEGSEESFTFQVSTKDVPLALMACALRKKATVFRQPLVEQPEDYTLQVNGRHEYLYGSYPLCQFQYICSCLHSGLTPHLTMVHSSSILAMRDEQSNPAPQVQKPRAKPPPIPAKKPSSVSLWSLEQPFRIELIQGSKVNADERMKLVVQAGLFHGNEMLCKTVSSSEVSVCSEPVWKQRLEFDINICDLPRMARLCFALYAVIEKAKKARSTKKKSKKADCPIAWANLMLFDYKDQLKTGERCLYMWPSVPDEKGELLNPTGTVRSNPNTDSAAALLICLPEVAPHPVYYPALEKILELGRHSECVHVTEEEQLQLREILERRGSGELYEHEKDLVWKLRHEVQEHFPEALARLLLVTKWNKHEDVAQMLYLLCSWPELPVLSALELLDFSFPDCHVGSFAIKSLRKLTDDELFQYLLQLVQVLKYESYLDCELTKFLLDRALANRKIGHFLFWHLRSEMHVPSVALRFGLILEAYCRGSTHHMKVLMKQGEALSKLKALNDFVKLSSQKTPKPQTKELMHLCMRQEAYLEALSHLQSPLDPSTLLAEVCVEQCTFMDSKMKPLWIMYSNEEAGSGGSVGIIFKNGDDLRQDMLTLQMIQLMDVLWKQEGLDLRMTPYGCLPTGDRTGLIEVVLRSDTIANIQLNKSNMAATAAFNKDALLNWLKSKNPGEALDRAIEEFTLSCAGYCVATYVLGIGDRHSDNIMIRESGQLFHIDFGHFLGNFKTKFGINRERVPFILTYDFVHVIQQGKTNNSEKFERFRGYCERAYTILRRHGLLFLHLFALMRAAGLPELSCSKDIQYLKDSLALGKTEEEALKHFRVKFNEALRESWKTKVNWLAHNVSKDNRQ

Consider 23 compounds from US11618753B2 (priority 2018, dated 2023).

In the assay the target is GST-tagged PIK3Cδ in complex with PIK3R1 (Homo sapiens (Human), UniProt O00329). Briefly: biochemical.
As a reminder, the IC50 is the concentration needed to halve the response being measured. In turn, `COc1ncc(-c2cc(C(F)(F)F)c3c(N)ncnn23)cc1C(=O)N[C@@H]1CN(S(=O)(=O)c2ccc(F)cc2)C[C@@H]1F` [Example 505, 5-[4-amino-5-(trifluoromethyl)pyrrolo[2,1-f][1,2,4]triazin-7-yl]-N-[(3R,4S)-4-fluoro-1-(4-fluorobenzenesulfonyl)pyrrolidin-3-yl]-2-methoxypyridine-3-carboxamide] showed a concentration for half-maximal inhibition (IC50) of more than 15000 nM. The compound `COc1ncc(-c2c(C#N)cc3c(N)ncnn23)cc1C(=O)N[C@@H]1CN(C(=O)C2(C(F)(F)F)CC2)C[C@@H]1F` [Example 554, 5-(4-amino-6-cyanopyrrolo[2,1-f][1,2,4]triazin-7-yl)-N-((3R,4S)-4-fluoro-1-(1-(trifluoromethyl)cyclopropane-1-carbonyl)pyrrolidin-3-yl)-2-methoxynicotinamide] registered a concentration for half-maximal inhibition (IC50) of more than 15000 nM. In turn, `Cc1c(F)cc(-c2cc(C(F)(F)F)c3c(N)ncnn23)cc1C(=O)N[C@@H]1CN(C(=O)[C@@](C)(O)C(F)(F)F)C[C@@H]1F` [Example 569, 5-[4-amino-5-(trifluoromethyl)pyrrolo[2,1-f][1,2,4]triazin-7-yl]-3-fluoro-N-[(3R,4S)-4-fluoro-1-[(2R)-3,3,3-trifluoro-2-hydroxy-2-methylpropanoyl]pyrrolidin-3-yl]-2-methylbenzamide] came in with a 50% inhibitory concentration (IC50) of 545 nM. `CC(C)CC(=O)N1C[C@H](F)[C@H](NC(=O)c2cc(-c3cc(C(F)(F)F)c4c(N)ncnn34)cc(F)c2CF)C1` [Example 625, 5-[4-amino-5-(trifluoromethyl)pyrrolo[2,1-f][1,2,4]triazin-7-yl]-3-fluoro-N-[(3R,4S)-4-fluoro-1-(3-methylbutanoyl)pyrrolidin-3-yl]-2-(fluoromethyl)benzamide]: half-maximal inhibition (IC50) was put at 100 nM. `CCc1c(F)cc(-c2cc(C(F)(F)F)c3c(N)ncnn23)cc1C(=O)N[C@@H]1CN(C(=O)c2ccccc2F)C[C@@H]1F` [Example 645, 5-[4-amino-5-(trifluoromethyl)pyrrolo[2,1-f][1,2,4]triazin-7-yl]-2-ethyl-3-fluoro-N-[(3R,4S)-4-fluoro-1-(2-fluorobenzoyl)pyrrolidin-3-yl]benzamide] returned an IC50 of 1320 nM. `CCc1c(F)cc(-c2cc(C(F)(F)F)c3c(N)ncnn23)cc1C(=O)N[C@@H]1CN(C(=O)CC(C)C)C[C@@H]1F` [Example 646, 5-[4-amino-5-(trifluoromethyl)pyrrolo[2,1-f][1,2,4]triazin-7-yl]-2-ethyl-3-fluoro-N-[(3R,4S)-4-fluoro-1-(3-methylbutanoyl)pyrrolidin-3-yl]benzamide] came in with a concentration for half-maximal inhibition (IC50) of 617 nM. Take `CCc1c(F)cc(-c2cc(C(F)(F)F)c3c(N)ncnn23)cc1C(=O)N[C@@H]1CN(C(=O)[C@@](C)(O)C(F)(F)F)C[C@@H]1F` [Example 650, 5-[4-amino-5-(trifluoromethyl)pyrrolo[2,1-f][1,2,4]triazin-7-yl]-2-ethyl-3-fluoro-N-[(3R,4S)-4-fluoro-1-[(2R)-3,3,3-trifluoro-2-hydroxy-2-methylpropanoyl]pyrrolidin-3-yl]benzamide]: the IC50 was more than 15000 nM.

`CCc1c(F)cc(-c2cc(C(F)(F)F)c3c(N)ncnn23)cc1C(=O)N[C@@H]1CN(C(=O)CC(C)C(F)(F)F)C[C@@H]1F` (stereo partly drawn) [Example 652, 5-[4-amino-5-(trifluoromethyl)pyrrolo[2,1-f][1,2,4]triazin-7-yl]-2-ethyl-3-fluoro-N-[(3R,4S)-4-fluoro-1-(4,4,4-trifluoro-3-methylbutanoyl)pyrrolidin-3-yl]benzamide] came in with an IC50 of more than 15000 nM. `CCc1c(F)cc(-c2cc(C(F)(F)F)c3c(N)ncnn23)cc1C(=O)N[C@@H]1CN(C(=O)CC(C)(O)C(F)(F)F)C[C@@H]1F` (stereo partly drawn) [Example 653, 5-[4-amino-5-(trifluoromethyl)pyrrolo[2,1-f][1,2,4]triazin-7-yl]-2-ethyl-3-fluoro-N-[(3R,4S)-4-fluoro-1-(4,4,4-trifluoro-3-hydroxy-3-methylbutanoyl)pyrrolidin-3-yl]benzamide] returned an IC50 of 1940 nM. The compound `CCc1c(F)cc(-c2cc(C(F)(F)F)c3c(N)ncnn23)cc1C(=O)N[C@@H]1CN(C(=O)C2CC(F)C2)C[C@@H]1F` (stereo partly drawn) [Example 656, 5-[4-amino-5-(trifluoromethyl)pyrrolo[2,1-f][1,2,4]triazin-7-yl]-2-ethyl-3-fluoro-N-[(3R,4S)-4-fluoro-1-(3-fluorocyclobutanecarbonyl)pyrrolidin-3-yl]benzamide] gave a half-maximal inhibitory concentration (IC50) of 1670 nM. Compound `COc1c(F)cc(-c2cc(C(F)(F)F)c3c(N)ncnn23)cc1C(=O)N[C@@H]1CN(C(=O)[C@@](C)(O)C(F)(F)F)C[C@@H]1F` [Example 686, 5-[4-amino-5-(trifluoromethyl)pyrrolo[2,1-f][1,2,4]triazin-7-yl]-3-fluoro-N-[(3R,4S)-4-fluoro-1-[(28)-3,3,3-trifluoro-2-hydroxy-2-methylpropanoyl]pyrrolidin-3-yl]-2-methoxybenzamide] registered an IC50 of more than 15000 nM.

`COc1c(F)cc(-c2cc(C(F)(F)F)c3c(N)ncnn23)cc1C(=O)N[C@@H]1CN(C(=O)CC(O)(C(F)(F)F)C(F)(F)F)C[C@@H]1F` [Example 690, 5-[4-amino-5-(trifluoromethyl)pyrrolo[2,1-f][1,2,4]triazin-7-yl]-3-fluoro-N-[(3R,4S)-4-fluoro-1-[4,4,4-trifluoro-3-hydroxy-3-(trifluoromethyl)butanoyl]pyrrolidin-3-yl]-2-methoxybenzamide] gave an IC50 of 13200 nM.

As to `Cc1cc(-c2cc(C(F)(F)F)c3c(N)ncnn23)cc(C(=O)N[C@@H]2CN(C(=O)CC(O)(C(F)(F)F)C(F)(F)F)C[C@@H]2F)c1Cl` [Example 702, 5-[4-amino-5-(trifluoromethyl)pyrrolo[2,1-f][1,2,4]triazin-7-yl]-2-chloro-N-[(3R,4S)-4-fluoro-1-[4,4,4-trifluoro-3-hydroxy-3-(trifluoromethyl)butanoyl]pyrrolidin-3-yl]-3-methylbenzamide], 1740 nM corresponded to half-maximal inhibition (IC50). As to `CCc1ccc(-c2cc(C(F)(F)F)c3c(N)ncnn23)c(F)c1C(=O)N[C@@H]1CN(C(=O)C2CC(F)(F)C2)C[C@@H]1F` [Example 741, 3-[4-amino-5-(trifluoromethyl)pyrrolo[2,1-f][1,2,4]triazin-7-yl]-N-[(3R,4S)-1-(3,3-difluorocyclobutanecarbonyl)-4-fluoropyrrolidin-3-yl]-6-ethyl-2-fluorobenzamide], it took 580 nM to reach half-maximal inhibition (IC50). The compound `CCC(O)(C(=O)N1C[C@H](F)[C@H](NC(=O)c2cc(-c3cc(C(F)(F)F)c4c(N)ncnn34)c(F)cc2F)C1)C(F)(F)F` (stereo partly drawn) [Example 781, 5-[4-amino-5-(trifluoromethyl)pyrrolo[2,1-f][1,2,4]triazin-7-yl]-2,4-difluoro-N-[(3R,4S)-4-fluoro-1-[2-hydroxy-2-(trifluoromethyl)butanoyl]pyrrolidin-3-yl]benzamide] returned an IC50 of 2050 nM. Then `Nc1ncnn2c(-c3cc(C(=O)N[C@@H]4CN(C(=O)CC(C(F)(F)F)C(F)(F)F)C[C@@H]4F)c(F)cc3F)cc(C(F)(F)F)c12` [Example 783, 5-[4-amino-5-(trifluoromethyl)pyrrolo[2,1-f][1,2,4]triazin-7-yl]-2,4-difluoro-N-[(3R,4S)-4-fluoro-1-[4,4,4-trifluoro-3-(trifluoromethyl)butanoyl]pyrrolidin-3-yl]benzamide], with 686 nM; and `C[C@@](O)(C(=O)N1C[C@H](F)[C@H](NC(=O)c2cc(-c3cc(C(F)(F)F)c4c(N)ncnn34)c(F)cc2F)C1)C(F)(F)F` [Example 790, 5-[4-amino-5-(trifluoromethyl)pyrrolo[2,1-f][1,2,4]triazin-7-yl]-2,4-difluoro-N-[(3R,4S)-4-fluoro-1-[(2R)-3,3,3-trifluoro-2-hydroxy-2-methylpropanoyl]pyrrolidin-3-yl]benzamide], with 1090 nM; and `Cc1cc(F)c(-c2cc(C(F)(F)F)c3c(N)ncnn23)cc1C(=O)N[C@@H]1CN(C(=O)c2cscn2)C[C@@H]1F` [Example 833, 5-[4-amino-5-(trifluoromethyl)pyrrolo[2,1-f][1,2,4]triazin-7-yl]-4-fluoro-N-[(3R,4S)-4-fluoro-1-(1,3-thiazole-4-carbonyl)pyrrolidin-3-yl]-2-methylbenzamide], with 974 nM. As for `Cc1cccc(C(=O)N2C[C@H](F)[C@H](NC(=O)c3cc(-c4cc(C(F)(F)F)c5c(N)ncnn45)c(F)cc3C)C2)n1` [Example 842, 5-[4-amino-5-(trifluoromethyl)pyrrolo[2,1-f][1,2,4]triazin-7-yl]-4-fluoro-N-[(3R,4S)-4-fluoro-1-(6-methylpyridine-2-carbonyl)pyrrolidin-3-yl]-2-methylbenzamide], the IC50 amounted to 1180 nM.

In turn, `Nc1ncnn2c(-c3cc(C(=O)N[C@@H]4CN(C(=O)CC(O)(C(F)(F)F)C(F)(F)F)C[C@@H]4F)c(Cl)cc3F)cc(C(F)(F)F)c12` [Example 885, 5-[4-amino-5-(trifluoromethyl)pyrrolo[2,1-f][1,2,4]triazin-7-yl]-2-chloro-4-fluoro-N-[(3R,4S)-4-fluoro-1-[4,4,4-trifluoro-3-hydroxy-3-(trifluoromethyl)butanoyl]pyrrolidin-3-yl]benzamide] displayed an IC50 of 529 nM. The compound `Nc1ncnn2c(-c3cc(C(=O)N[C@@H]4CN(C(=O)C5CC(F)C5)C[C@@H]4F)c(Cl)cc3F)cc(C(F)(F)F)c12` (stereo partly drawn) [Example 888, 5-[4-amino-5-(trifluoromethyl)pyrrolo[2,1-f][1,2,4]triazin-7-yl]-2-chloro-4-fluoro-N-[(3R,4S)-4-fluoro-1-(3-fluorocyclobutanecarbonyl)pyrrolidin-3-yl]benzamide] had an IC50 of 487 nM. As to `Nc1ncnn2c(-c3ccc(C(F)(F)F)c(C(=O)N[C@@H]4CN(C(=O)c5ccccc5F)C[C@@H]4F)c3)cc(C(F)(F)F)c12` [Example 906, 5-[4-amino-5-(trifluoromethyl)pyrrolo[2,1-f][1,2,4]triazin-7-yl]-N-[(3R,4S)-4-fluoro-1-(2-fluorobenzoyl)pyrrolidin-3-yl]-2-(trifluoromethyl)benzamide], half-maximal inhibition (IC50) required 443 nM. As for `C[C@@](O)(C(=O)N1C[C@H](F)[C@H](NC(=O)c2cc(-c3cc(C(F)(F)F)c4c(N)ncnn34)ccc2CF)C1)C(F)(F)F` [Example 910, 5-[4-amino-5-(trifluoromethyl)pyrrolo[2,1-f][1,2,4]triazin-7-yl]-N-[(3R,4S)-4-fluoro-1-[(2R)-3,3,3-trifluoro-2-hydroxy-2-methylpropanoyl]pyrrolidin-3-yl]-2-(fluoromethyl)benzamide], the figure is 200 nM.
